{"source": "patent US20100125103A1", "about": "“COMPOSITION FOR THE TREATMENT OF DIABETES AND METABOLIC SYNDROME CONTAINING OBOVATOL AND ITS SYNTHESIZED DERIVATIVES” (TG BIOTECH CO. LTD., priority 2008, published 2010)", "experiment": "Solubility (Table 1)", "type": "physicochemical", "procedure": "Each of the compounds prepared by Examples 1 to 7 were subjected to UV absorbance analysis, IR(infrared) absorbance analysis and high resolution mass spectrometry analysis so as to determine the molecular weight and formula of the purified compound. Specifically, UV absorbance analysis was carried out by UV-265 spectrophotometer (Shimadzu), IR absorbance analysis was carried out by FTS-80 spectrophotometer (Bio-Rad Digilab Division), and the molecular weight and formula were determined through High resolution MS analysis by using VG70-SEQ mass spectrometry. Also, a nuclear magnetic resonance device (Varian 300, 500 NMR) was used to obtain ^1H, ^13C-NMR spectrum, and the spectrum was synthetically analyzed to determine the structure."}
{"substance": "obovatol [Example 1]", "values": [{"measurement": "Solubility Insoluble", "setting": "solvents in which the compound is insoluble", "result": "Water"}, {"measurement": "Solubility Soluble", "setting": "solvents in which the compound is soluble", "result": "Alcohol, and DMSO"}]}
